Values quoted from earlier work as cited in paper PMC8198056, “Antinociceptive Efficacy of the µ-Opioid/Nociceptin Peptide-Based Hybrid KGNOP1 in Inflammatory Pain without Rewarding Effects in Mice: An Experimental Assessment and Molecular Docking” (Molecules, 2021).

Sequences of proteins named here, by UniProt entry; tags and fusion partners are left off. A change or cut given only in a name is not applied to a line headed by its entry.
UniProt P41146: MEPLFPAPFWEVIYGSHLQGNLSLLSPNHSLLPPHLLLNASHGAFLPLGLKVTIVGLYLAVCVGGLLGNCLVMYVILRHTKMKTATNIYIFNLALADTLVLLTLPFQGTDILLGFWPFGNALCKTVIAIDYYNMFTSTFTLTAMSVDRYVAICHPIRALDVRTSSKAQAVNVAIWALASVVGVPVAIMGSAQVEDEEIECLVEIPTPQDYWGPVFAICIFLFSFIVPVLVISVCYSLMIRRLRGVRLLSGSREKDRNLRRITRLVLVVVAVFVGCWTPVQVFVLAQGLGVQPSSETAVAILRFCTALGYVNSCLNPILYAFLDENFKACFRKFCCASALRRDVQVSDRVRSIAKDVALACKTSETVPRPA

Molecular target: T1, human NOP receptor (Homo sapiens, UniProt P41146)
T1 construct: expressed in transfected cells; host or cells: CHO (CHO-hNOP; gift of Lawrence Toll, SRI International)
Parameters: method as in PMID 27035422
Details: forskolin-stimulated cAMP assay, HEK293 human NOP; cited from earlier work

For `CC[C@H](C)[C@H](NC(=O)[C@H](CCCNC(=N)N)NC(=O)[C@H](Cc1ccc(O)cc1)NC(=O)[C@H](Cc1ccc(O)cc1)NC(=O)[C@H](CCCNC(=N)N)NC(=O)CCN1Cc2ccccc2C[C@H](NC(=O)[C@@H](CCCNC(=N)N)NC(=O)[C@@H](N)Cc2c(C)cc(O)cc2C)C1=O)C(=O)N[C@@H](CCCCN)C(N)=O` [KGNOP1, H-Dmt-D-Arg-Aba-β-Ala-Arg-Tyr-Tyr-Arg-Ile-Lys-NH2], the “pA2 (antagonist profile to the NOP receptor)” value is listed as 5.39.
